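Tested at 5 concentrations; 48 h exposure; 96-well plates; endpoints linearly interpolated, else capped at highest concentration. Here, GI50 denotes the concentration required for 50% inhibition of growth. TGI: total growth inhibition.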
How the values were obtained:
Test in all cases: NCI anticancer screen, dose series, 48 h; in the data active = GI50 below about 0.43 µM; inactive = the rest
786-0 renal = tested on: 786-0 renal
A498 renal = tested on: A498 renal
A549 NSCLC = tested on: A549 NSCLC
ACHN renal = tested on: ACHN renal
CAKI-1 renal = tested on: CAKI-1 renal
CCRF-CEM leukemia = tested on: CCRF-CEM leukemia
COLO 205 colon = tested on: COLO 205 colon
DLD-1 colon = tested on: DLD-1 colon
DMS 114 small cell lung = tested on: DMS 114 small cell lung
DMS 273 small cell lung = tested on: DMS 273 small cell lung
EKVX NSCLC = tested on: EKVX NSCLC
HCC-2998 colon = tested on: HCC-2998 colon
HCT-116 colon = tested on: HCT-116 colon
HCT-15 colon = tested on: HCT-15 colon
HL-60(TB) leukemia = tested on: HL-60(TB) leukemia
HOP-62 NSCLC = tested on: HOP-62 NSCLC
HOP-92 NSCLC = tested on: HOP-92 NSCLC
HT29 colon = tested on: HT29 colon
IGROV1 ovarian = tested on: IGROV1 ovarian
K-562 leukemia = tested on: K-562 leukemia
KM12 colon = tested on: KM12 colon
KM20L2 colon = tested on: KM20L2 colon
LOX IMVI melanoma = tested on: LOX IMVI melanoma
LXFL 529 NSCLC = tested on: LXFL 529 NSCLC
M14 melanoma = tested on: M14 melanoma
M19-MEL melanoma = tested on: M19-MEL melanoma
MALME-3M melanoma = tested on: MALME-3M melanoma
MOLT-4 leukemia = tested on: MOLT-4 leukemia
NCI-H226 lung = tested on: NCI-H226 lung
NCI-H23 lung = tested on: NCI-H23 lung
NCI-H322M lung = tested on: NCI-H322M lung
NCI-H460 lung = tested on: NCI-H460 lung
NCI-H522 lung = tested on: NCI-H522 lung
OVCAR-3 ovarian = tested on: OVCAR-3 ovarian
OVCAR-4 ovarian = tested on: OVCAR-4 ovarian
OVCAR-5 ovarian = tested on: OVCAR-5 ovarian
OVCAR-8 ovarian = tested on: OVCAR-8 ovarian
RPMI-8226 leukemia = tested on: RPMI-8226 leukemia
RXF 393 renal = tested on: RXF 393 renal
RXF-631 renal = tested on: RXF-631 renal
SF-268 CNS = tested on: SF-268 CNS
SF-295 CNS = tested on: SF-295 CNS
SF-539 CNS = tested on: SF-539 CNS
SK-MEL-2 melanoma = tested on: SK-MEL-2 melanoma
SK-MEL-28 melanoma = tested on: SK-MEL-28 melanoma
SK-MEL-5 melanoma = tested on: SK-MEL-5 melanoma
SK-OV-3 ovarian = tested on: SK-OV-3 ovarian
SN12C renal = tested on: SN12C renal
SNB-19 CNS = tested on: SNB-19 CNS
SNB-75 CNS = tested on: SNB-75 CNS
SNB-78 CNS = tested on: SNB-78 CNS
SR leukemia = tested on: SR leukemia
SW-620 colon = tested on: SW-620 colon
TK-10 renal = tested on: TK-10 renal
U251 CNS = tested on: U251 CNS
UACC-257 melanoma = tested on: UACC-257 melanoma
UACC-62 melanoma = tested on: UACC-62 melanoma
UO-31 renal = tested on: UO-31 renal

CCCSC1CCOP(=O)(N(CCCl)CCCl)N1C (stereo unspecified)
67.1 µM: TGI (HL-60(TB) leukemia)
> 100 µM: TGI (786-0 renal) | TGI (A498 renal) | TGI (A549 NSCLC) | TGI (ACHN renal) | TGI (CAKI-1 renal) | TGI (CCRF-CEM leukemia) | TGI (COLO 205 colon) | TGI (DLD-1 colon) | TGI (DMS 114 small cell lung) | TGI (DMS 273 small cell lung) | TGI (EKVX NSCLC) | TGI (HCC-2998 colon) | TGI (HCT-116 colon) | TGI (HCT-15 colon) | TGI (HOP-62 NSCLC) | TGI (HOP-92 NSCLC) | TGI (HT29 colon) | TGI (IGROV1 ovarian) | TGI (K-562 leukemia) | TGI (KM12 colon) | TGI (KM20L2 colon) | TGI (LXFL 529 NSCLC) | TGI (M14 melanoma) | TGI (M19-MEL melanoma) | TGI (MALME-3M melanoma) | TGI (MOLT-4 leukemia) | TGI (NCI-H226 lung) | TGI (NCI-H23 lung) | TGI (NCI-H322M lung) | TGI (NCI-H460 lung) | TGI (NCI-H522 lung) | TGI (OVCAR-3 ovarian) | TGI (OVCAR-4 ovarian) | TGI (OVCAR-5 ovarian) | TGI (OVCAR-8 ovarian) | TGI (RPMI-8226 leukemia) | TGI (RXF 393 renal) | TGI (RXF-631 renal) | TGI (SF-268 CNS) | TGI (SF-295 CNS) | TGI (SF-539 CNS) | TGI (SK-MEL-2 melanoma) | TGI (SK-MEL-28 melanoma) | TGI (SK-MEL-5 melanoma) | TGI (SK-OV-3 ovarian) | TGI (SN12C renal) | TGI (SNB-19 CNS) | TGI (SNB-75 CNS) | TGI (SNB-78 CNS) | TGI (SR leukemia) | TGI (SW-620 colon) | TGI (TK-10 renal) | TGI (U251 CNS) | TGI (UACC-257 melanoma) | TGI (UACC-62 melanoma) | TGI (UO-31 renal)
inactive: GI50 (786-0 renal) > 100 µM | GI50 (A498 renal) > 100 µM | GI50 (A549 NSCLC) > 100 µM | GI50 (ACHN renal) > 100 µM | GI50 (CAKI-1 renal) > 100 µM | GI50 (CCRF-CEM leukemia) > 100 µM | GI50 (COLO 205 colon) > 100 µM | GI50 (DLD-1 colon) > 100 µM | GI50 (DMS 114 small cell lung) 43.8 µM | GI50 (DMS 273 small cell lung) > 100 µM | GI50 (EKVX NSCLC) > 100 µM | GI50 (HCC-2998 colon) > 100 µM | GI50 (HCT-116 colon) 56.4 µM | GI50 (HCT-15 colon) > 100 µM | GI50 (HL-60(TB) leukemia) 17.6 µM | GI50 (HOP-62 NSCLC) > 100 µM | GI50 (HOP-92 NSCLC) 54.8 µM | GI50 (HT29 colon) 95.5 µM | GI50 (IGROV1 ovarian) > 100 µM | GI50 (K-562 leukemia) 49.3 µM | GI50 (KM12 colon) > 100 µM | GI50 (KM20L2 colon) > 100 µM | GI50 (LOX IMVI melanoma) 21.6 µM | GI50 (LXFL 529 NSCLC) 66.9 µM | GI50 (M14 melanoma) > 100 µM | GI50 (M19-MEL melanoma) > 100 µM | GI50 (MALME-3M melanoma) > 100 µM | GI50 (MOLT-4 leukemia) > 100 µM | GI50 (NCI-H226 lung) > 100 µM | GI50 (NCI-H23 lung) > 100 µM | GI50 (NCI-H322M lung) > 100 µM | GI50 (NCI-H460 lung) 94.7 µM | GI50 (NCI-H522 lung) 90.8 µM | GI50 (OVCAR-3 ovarian) > 100 µM | GI50 (OVCAR-4 ovarian) > 100 µM | GI50 (OVCAR-5 ovarian) > 100 µM | GI50 (OVCAR-8 ovarian) > 100 µM | GI50 (RPMI-8226 leukemia) 79.9 µM | GI50 (RXF 393 renal) > 100 µM | GI50 (RXF-631 renal) > 100 µM | GI50 (SF-268 CNS) > 100 µM | GI50 (SF-295 CNS) > 100 µM | GI50 (SF-539 CNS) > 100 µM | GI50 (SK-MEL-2 melanoma) > 100 µM | GI50 (SK-MEL-28 melanoma) > 100 µM | GI50 (SK-MEL-5 melanoma) 76.7 µM | GI50 (SK-OV-3 ovarian) > 100 µM | GI50 (SN12C renal) > 100 µM | GI50 (SNB-19 CNS) > 100 µM | GI50 (SNB-75 CNS) > 100 µM | GI50 (SNB-78 CNS) > 100 µM | GI50 (SR leukemia) 47.6 µM | GI50 (SW-620 colon) > 100 µM | GI50 (TK-10 renal) > 100 µM | GI50 (U251 CNS) > 100 µM | GI50 (UACC-257 melanoma) > 100 µM | GI50 (UACC-62 melanoma) > 100 µM | GI50 (UO-31 renal) > 100 µM
86.1 µM: TGI (LOX IMVI melanoma)
